This experiment has as its target Rap80 tUIM peptide (His6-tagged, fluorescently labeled) (human). Put plainly: fluorescence polarisation. For orientation: Fluorescence polarisation rises when a labelled molecule tumbles more slowly, as on binding a larger partner.

The term Kd denotes the concentration at which binding is half-saturated. A lower Kd goes with higher affinity. For “K48-linked tetraubiquitin (from UniProt P0CG48 1-76) (complex)”, the Kd came out at 14 µM.

The record behind these values is PMC2709242.
